## AlphaSeq binding of Ab-95 light chain variants to a spike HR2 peptide

Source: Engelhart et al. 2022 (doi:10.1038/s41597-022-01779-4), MIT Lincoln Laboratory and A-Alpha Bio; data file from the FLAb repository.

All variants were tested on one target, the spike HR2 peptide PDVDLGDISGINAS (SARS-CoV-2).

Each scFv is VH, a 15-residue (Gly4Ser)3 linker, VL, as in the parent Ab-95, and differs from it in the CDRs of the light chain only.
VH: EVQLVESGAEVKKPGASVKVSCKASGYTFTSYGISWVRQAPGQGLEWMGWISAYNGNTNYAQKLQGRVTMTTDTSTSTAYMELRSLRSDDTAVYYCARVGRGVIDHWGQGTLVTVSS
VL: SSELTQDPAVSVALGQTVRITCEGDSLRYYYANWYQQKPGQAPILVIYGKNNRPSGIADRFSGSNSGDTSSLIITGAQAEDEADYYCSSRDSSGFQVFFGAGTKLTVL

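The parent was found by panning a naive human phage display library on the peptide. Library AAYL52 holds single substitutions and randomly drawn double and triple substitutions in the CDRs. The assay is AlphaSeq: two haploid yeast populations carry antibody and antigen on their surface. Binding brings cells together so that they mate, and sequencing counts the barcode pairs among the diploids. Scores were corrected for input abundance and mapped to Kd with protein pairs of known affinity run in the same pool. There are three technical replicates.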

Variants are written as CDR1, CDR2 and CDR3 of the light chain (limits as in the source). Parent: EGDSLRYYYAN, GKNNRPS, SSRDSSGFQVF. All variants listed here change R28 of the VL, counted from its first residue. The Kd shown is the geometric mean over detected replicates; a lower Kd is a better binder. "no signal" means that the variant was in the library but no mating with the target was seen in any replicate; the authors take this as a sign of poor binding, and no number exists. As a blank, each scFv also met three strains without target: over library AAYL52, 28% of these pairings were detected, typically at 8.2 µM and seldom below 800 nM. The control count says in how many pairings with the empty strains this scFv gave a signal. In this assay the parent's reference entry averaged 200 nM; its copy inside this library read 180 nM.

- EGDSLEYYSAN, GKNNRPS, SSRDSIGFQVF -> 44 µM (3 of 3 replicates; controls 2 of 9)
- EGDDLVYYYAN, GKNNRPS, SSRDSSGFQVF -> 210 nM (3 of 3 replicates; controls 1 of 9)
- EGDTLDYYYAN, GKNNRVS, SSRDSSGFQVF -> 15 µM (2 of 3 replicates; controls 2 of 9)
- EGDSLVYYYAN, GKCNRPS, SSRLSSGFQVF -> 9.1 µM (2 of 3 replicates; controls 2 of 9)
- EIDSLSYYYAN, GKNNRPS, SSRDSEGFQVF -> 1.9 µM (3 of 3 replicates; controls 2 of 9)
- EGPSLCYYYAN, GKNNRPS, SSRDSSGFQVF -> 1.3 µM (3 of 3 replicates; controls 3 of 9)
- EGDSLTYYYMN, GKNNRPS, SSRDSSGFQHF -> no signal (0 of 3 replicates; controls 1 of 9)
- EGDSLKYYYAN, GKNAPPS, SSRDSSGFQVF -> 3.9 µM (1 of 3 replicates; controls 4 of 9)
- EGDSLDYYYAN, GKNNRPS, SSNLSSGFQVF -> 600 nM (3 of 3 replicates; controls 0 of 9)
- EGDSLKYYYAN, GKNNRPS, SSRDSSGRQVF -> 8.7 µM (1 of 3 replicates; controls 0 of 9)
- EGDSLVYYYAS, GKNNRPS, SSPDSSGFQVF -> 130 µM (1 of 3 replicates; controls 5 of 9)
- EGDSLAYQYAN, GKNNRPS, SSRDSSGFQVF -> 6.3 nM (3 of 3 replicates; controls 6 of 9)
- EGDSLVYYYAN, GKNNNPS, SSRDSSGFQVF -> 3.5 µM (2 of 3 replicates; controls 0 of 9)
- EGDSLTRYYAN, GKNNRMS, SSRDSSGFQVF -> 1.0 µM (3 of 3 replicates; controls 3 of 9)
- EGDKLPYYYAN, GKNNRPS, SSRDSSGFQCF -> 1.1 µM (3 of 3 replicates; controls 3 of 9)
- EGDSLEYYYEN, GKNNRPS, SSRDSSGFQVF -> no signal (0 of 3 replicates; controls 2 of 9)
- EGDSLVYYYAN, GKNNWPS, SSRDSSGFQVF -> 3.4 µM (3 of 3 replicates; controls 2 of 9)
- EGDSLKYYIAN, GKNNRPS, SSRDSSGEQVF -> 560 nM (2 of 3 replicates; controls 2 of 9)
- EGDSLQYYYAN, GKNNRPS, SSRDSSGIQVF -> 1.1 µM (3 of 3 replicates; controls 4 of 9)
- EGDSLMYYYRN, GKMNRPS, SSRDSSGFQVF -> 19 µM (1 of 3 replicates; controls 1 of 9)
- EGDSLPYYYAN, GKNNSPS, QSRDSSGFQVF -> 5.8 µM (1 of 3 replicates; controls 5 of 9)
- EGDSLFYYYAA, GKNNRPS, SSRDSSQFQVF -> 2.8 µM (3 of 3 replicates; controls 5 of 9)
- EGDSLPYYYAN, GKRNRPC, SSRDSSGFQVF -> 5.4 µM (1 of 3 replicates; controls 3 of 9)
- EGDSLMYYYAN, GKNNRPS, SSRDSPAFQVF -> 300 nM (3 of 3 replicates; controls 3 of 9)
- EGDWLKNYYAN, GKNNRPS, SSRDSSGFQVF -> 1.1 µM (3 of 3 replicates; controls 0 of 9)
- EGDSLEYYYAN, GKNNRPS, SSRDSSGFQVF -> 190 nM (3 of 3 replicates; controls 5 of 9)
- EGDSLPYYYAN, GKTNRPS, SLRDSSGFQVF -> 3.9 µM (3 of 3 replicates; controls 1 of 9)
- EGDSLCYYSAN, GKNNRPS, SSRDSSGFTVF -> 500 nM (3 of 3 replicates; controls 3 of 9)
- EGDSLVYYYAN, GKNNTPS, SSRDSSGKQVF -> 13 µM (3 of 3 replicates; controls 1 of 9)
- EGDSLDYYYAN, GKCNRPS, SLRDSSGFQVF -> 11 µM (1 of 3 replicates; controls 3 of 9)
- EGDSLEYYYAT, GKNNRPS, SSRDSSVFQVF -> 93 µM (2 of 3 replicates; controls 3 of 9)
- EGDFLNYYTAN, GKNNRPS, SSRDSSGFQVF -> 830 nM (3 of 3 replicates; controls 4 of 9)
- EQDSGQYYYAN, GKNNRPS, SSRDSSGFQVF -> 13 µM (1 of 3 replicates; controls 1 of 9)
- EGDSLPYYYAN, GKNNRES, SSRKSSGFQVF -> 27 µM (1 of 3 replicates; controls 1 of 9)
- EGDSLSYYNAN, KKNNRPS, SSRDSSGFQVF -> 9.5 µM (2 of 3 replicates; controls 4 of 9)
- ELDSLIYYYAN, GKNNRPS, SSRDSDGFQVF -> 670 nM (2 of 3 replicates; controls 2 of 9)
- EGDSLKYYYAN, GKNNRPS, VSRDSSGCQVF -> 160 nM (3 of 3 replicates; controls 5 of 9)
- EGDSLYYYSAN, GKNNRPS, SRRDSSGFQVF -> 150 nM (3 of 3 replicates; controls 3 of 9)
- EGDSLQYYYAN, GKYNRPS, SSRDSSGFQVR -> 880 nM (3 of 3 replicates; controls 4 of 9)
- EGDSLVYYYAN, GKNNPPS, SSRDSSDFQVF -> 2.0 µM (1 of 3 replicates; controls 2 of 9)

For reference, 4 entries of the list once more:

CDR-L1	CDR-L2	CDR-L3	Kd (apparent)	replicates with signal	signal with controls
EGDSLVYYYAN	GKNNPPS	SSRDSSDFQVF	2.0 µM	1 of 3	2 of 9
EGDSLKYYYAN	GKNAPPS	SSRDSSGFQVF	3.9 µM	1 of 3	4 of 9
EQDSGQYYYAN	GKNNRPS	SSRDSSGFQVF	13 µM	1 of 3	1 of 9
EGDDLVYYYAN	GKNNRPS	SSRDSSGFQVF	210 nM	3 of 3	1 of 9